How the values were obtained:
EGF-R d752-759 = EGF-R d752-759 (Homo sapiens (Human), UniProt P00533, DEL752-759); experiment: Kinase assay (33P FlashPlate) EGF-R d752-759; assay type: biochemical; conditions: Table 3
EGF-R d747-749 A750P = EGF-R d747-749 A750P (Homo sapiens (Human), UniProt P00533, A750P/DEL747-749); experiment: Kinase assay (33P FlashPlate) EGF-R d747-749 A750P; assay type: biochemical; conditions: Table 3

The chains behind the UniProt entries cited, without tags or fusion partners. A line that says so, or that is headed by a name, gives the form on record, which may keep a tag or linker.
UniProt P00533, other isoform, or with tags, fused parts or gaps del 1-671/del 752-759 limits assumed: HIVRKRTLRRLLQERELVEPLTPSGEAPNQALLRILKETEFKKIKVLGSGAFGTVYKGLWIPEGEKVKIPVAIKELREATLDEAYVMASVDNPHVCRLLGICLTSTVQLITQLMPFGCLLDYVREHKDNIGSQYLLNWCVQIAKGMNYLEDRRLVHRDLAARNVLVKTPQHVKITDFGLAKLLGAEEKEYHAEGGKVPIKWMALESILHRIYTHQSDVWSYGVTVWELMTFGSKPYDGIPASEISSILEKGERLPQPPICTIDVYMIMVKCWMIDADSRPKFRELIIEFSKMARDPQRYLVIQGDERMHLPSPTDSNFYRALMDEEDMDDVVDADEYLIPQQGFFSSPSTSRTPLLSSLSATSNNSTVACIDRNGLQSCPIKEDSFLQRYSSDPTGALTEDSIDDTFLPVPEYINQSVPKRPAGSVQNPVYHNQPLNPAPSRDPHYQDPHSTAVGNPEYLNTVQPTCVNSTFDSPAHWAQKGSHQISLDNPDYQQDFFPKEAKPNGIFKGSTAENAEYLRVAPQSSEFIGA
UniProt P00533, other isoform, or with tags, fused parts or gaps A750P/del 1-671/del 747-749 limits assumed: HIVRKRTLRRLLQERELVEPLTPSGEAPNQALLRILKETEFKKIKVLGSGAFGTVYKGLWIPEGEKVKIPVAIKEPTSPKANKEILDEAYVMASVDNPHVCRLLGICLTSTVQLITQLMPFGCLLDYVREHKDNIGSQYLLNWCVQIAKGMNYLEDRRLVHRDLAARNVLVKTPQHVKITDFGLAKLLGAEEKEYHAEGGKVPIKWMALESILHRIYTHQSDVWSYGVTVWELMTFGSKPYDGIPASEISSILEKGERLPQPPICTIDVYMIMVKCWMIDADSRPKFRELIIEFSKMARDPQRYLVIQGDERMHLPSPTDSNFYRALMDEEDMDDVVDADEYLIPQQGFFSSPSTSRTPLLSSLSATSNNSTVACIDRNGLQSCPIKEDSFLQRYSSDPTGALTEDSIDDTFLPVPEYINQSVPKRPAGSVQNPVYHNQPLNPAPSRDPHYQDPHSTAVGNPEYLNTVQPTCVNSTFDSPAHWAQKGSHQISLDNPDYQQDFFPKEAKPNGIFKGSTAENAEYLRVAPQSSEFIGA

Nc1c(-c2ccc(F)cc2)c(-c2ccncc2)nn1-c1c(Cl)cc(Cl)cc1Cl [Compound 6] gave an IC50 (EGF-R d752-759) of 0.091 µM and an IC50 (EGF-R d747-749 A750P) of 0.17 µM.

From patent publication US9416123B2, “Kinase modulators for the treatment of cancer” (Synovo GmbH, priority 2011, dated 2016)
